From patent publication US11242321B2, “Salt forms of organic compound” (KAINOS MEDICINE INC., priority 2018, dated 2022)

Key:
[1] = Aqueous solubility assessment of salt screen solids (visual); conditions: Ca. 5 mg in up to 4000 μL water (1.25 mg/ml), shaken overnight at 50° C.
Protocol: Aqueous solubility assessment was performed using Ca. […] These samples were added to aliquots of deionized water up to a maximum of 4000 μL with the samples being shaken between additions to encourage dissolution prior to a visual inspection.

pH of saturated solution = type: physicochemical; conditions: saturated solution in deionized water, room temperature
Protocol: A saturated solution of each of the salts was prepared in 5 mL of deionized water at room temperature prior to analysis.

salt of 4-(2-((4-bromophenyl)thio)acetamido)-1-phenethyl-1H-pyrazole-3-carboxylic acid and L-lysine
Solubility assessment (dissolution in deionized water), salt from DIPE ([1]; salt prepared from DIPE): Partial

salt of 4-(2-((4-bromophenyl)thio)acetamido)-1-phenethyl-1H-pyrazole-3-carboxylic acid and choline
Solubility assessment (dissolution in deionized water), salt from MIBK ([1]; salt prepared from MIBK): No dissolution

salt of 4-(2-((4-bromophenyl)thio)acetamido)-1-phenethyl-1H-pyrazole-3-carboxylic acid and diethylamine [diethylamine salt]
pH of rm temp sat'd sol'n (pH of saturated solution): 8.08
